ChEMBL document CHEMBL5247649, “Comparative Efficacy and Selectivity of Pharmacological Inhibitors of DYRK and CLK Protein Kinases” (J Med Chem, 2023)
Values belong to the compound of their own block, whether it stands above or below them.

By UniProt entry, the sequences of proteins in these tests, tags left out. Where a name states a change or a piece, a line headed by the entry shows the natural chain unless it says otherwise.
UniProt P49761: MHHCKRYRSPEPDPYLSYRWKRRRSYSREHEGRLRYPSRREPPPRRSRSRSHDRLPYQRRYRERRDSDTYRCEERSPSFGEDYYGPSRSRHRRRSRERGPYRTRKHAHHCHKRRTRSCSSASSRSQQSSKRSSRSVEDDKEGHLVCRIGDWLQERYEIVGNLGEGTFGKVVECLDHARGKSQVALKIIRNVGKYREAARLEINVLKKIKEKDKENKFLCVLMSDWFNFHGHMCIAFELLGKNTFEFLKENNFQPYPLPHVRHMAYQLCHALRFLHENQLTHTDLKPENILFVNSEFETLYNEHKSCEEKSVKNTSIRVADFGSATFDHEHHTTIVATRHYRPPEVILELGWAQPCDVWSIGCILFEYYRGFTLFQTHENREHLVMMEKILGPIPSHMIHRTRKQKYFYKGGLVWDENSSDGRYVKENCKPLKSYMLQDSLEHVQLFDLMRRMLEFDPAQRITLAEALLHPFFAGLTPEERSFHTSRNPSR
UniProt P49760, whole entry: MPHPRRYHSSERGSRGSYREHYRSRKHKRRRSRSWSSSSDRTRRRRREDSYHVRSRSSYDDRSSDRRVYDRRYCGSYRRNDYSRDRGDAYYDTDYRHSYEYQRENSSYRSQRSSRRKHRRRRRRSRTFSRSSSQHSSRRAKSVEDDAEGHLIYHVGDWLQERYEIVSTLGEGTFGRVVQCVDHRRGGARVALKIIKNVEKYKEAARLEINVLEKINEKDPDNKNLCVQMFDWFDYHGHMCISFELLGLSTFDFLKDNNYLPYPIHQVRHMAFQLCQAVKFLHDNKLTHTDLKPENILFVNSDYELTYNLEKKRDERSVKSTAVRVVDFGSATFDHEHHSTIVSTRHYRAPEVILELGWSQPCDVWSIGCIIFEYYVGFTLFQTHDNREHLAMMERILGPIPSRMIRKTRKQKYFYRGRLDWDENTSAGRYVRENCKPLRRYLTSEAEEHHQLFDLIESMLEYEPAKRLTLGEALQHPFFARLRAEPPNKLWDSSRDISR
UniProt P49841: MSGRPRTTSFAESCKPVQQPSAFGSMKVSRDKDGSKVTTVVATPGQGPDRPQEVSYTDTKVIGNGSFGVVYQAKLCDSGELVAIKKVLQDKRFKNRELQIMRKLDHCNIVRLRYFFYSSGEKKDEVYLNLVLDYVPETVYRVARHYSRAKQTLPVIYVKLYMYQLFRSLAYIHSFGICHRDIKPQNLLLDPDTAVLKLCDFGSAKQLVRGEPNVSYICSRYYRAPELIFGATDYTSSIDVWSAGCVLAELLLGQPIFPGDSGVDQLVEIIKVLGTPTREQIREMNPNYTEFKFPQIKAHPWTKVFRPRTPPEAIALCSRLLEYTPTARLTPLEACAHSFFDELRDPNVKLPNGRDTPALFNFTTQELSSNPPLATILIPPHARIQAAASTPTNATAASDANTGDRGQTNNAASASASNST

Key:
[1] = molecular target: Dual specificity protein kinase CLK3 (Homo sapiens, UniProt P49761); assay: biochemical
[2] = molecular target: T1, Dual specificity tyrosine-phosphorylation-regulated kinase 4 (Homo sapiens, UniProt Q9NR20); assay: biochemical
T1 sequence (Q9NR20 whole entry): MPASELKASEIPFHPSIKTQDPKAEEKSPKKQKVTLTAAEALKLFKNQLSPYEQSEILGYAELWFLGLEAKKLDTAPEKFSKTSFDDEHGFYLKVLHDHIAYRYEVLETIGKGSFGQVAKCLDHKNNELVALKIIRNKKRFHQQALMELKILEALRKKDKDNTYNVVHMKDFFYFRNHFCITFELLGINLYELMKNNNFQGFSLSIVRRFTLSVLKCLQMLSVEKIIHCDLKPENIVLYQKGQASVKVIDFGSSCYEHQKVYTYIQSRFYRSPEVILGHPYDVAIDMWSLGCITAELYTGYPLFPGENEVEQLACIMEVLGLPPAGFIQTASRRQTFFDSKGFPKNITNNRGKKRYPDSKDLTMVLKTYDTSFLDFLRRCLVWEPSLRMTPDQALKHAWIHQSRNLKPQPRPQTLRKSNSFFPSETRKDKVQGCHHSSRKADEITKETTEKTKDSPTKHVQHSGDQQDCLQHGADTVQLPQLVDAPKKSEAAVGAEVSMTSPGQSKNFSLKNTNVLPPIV

[3] = molecular target: T2, Dual specificity tyrosine-phosphorylation-regulated kinase 3 (Homo sapiens, UniProt O43781); assay: biochemical
T2 sequence (O43781 whole entry): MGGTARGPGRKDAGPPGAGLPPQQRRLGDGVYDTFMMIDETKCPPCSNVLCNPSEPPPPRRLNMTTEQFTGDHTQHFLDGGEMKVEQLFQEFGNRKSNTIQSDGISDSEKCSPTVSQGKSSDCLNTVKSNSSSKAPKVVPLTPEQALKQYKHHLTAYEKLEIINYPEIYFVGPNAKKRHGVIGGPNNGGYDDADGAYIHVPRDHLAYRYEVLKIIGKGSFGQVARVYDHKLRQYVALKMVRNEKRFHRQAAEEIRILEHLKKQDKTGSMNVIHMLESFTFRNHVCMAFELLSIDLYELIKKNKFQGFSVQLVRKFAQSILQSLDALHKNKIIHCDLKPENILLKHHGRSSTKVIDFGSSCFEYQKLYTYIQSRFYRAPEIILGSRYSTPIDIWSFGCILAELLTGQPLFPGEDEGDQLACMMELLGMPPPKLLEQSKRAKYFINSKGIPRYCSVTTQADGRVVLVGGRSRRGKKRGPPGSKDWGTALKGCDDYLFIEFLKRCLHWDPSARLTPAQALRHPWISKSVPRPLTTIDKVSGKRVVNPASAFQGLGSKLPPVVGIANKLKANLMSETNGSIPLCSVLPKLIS

[4] = molecular target: Dual specificity protein kinase CLK2 (Homo sapiens, UniProt P49760); assay: biochemical
[5] = molecular target: T3, Dual specificity tyrosine-phosphorylation-regulated kinase 2 (Homo sapiens, UniProt Q92630); assay: biochemical
T3 sequence (Q92630 whole entry): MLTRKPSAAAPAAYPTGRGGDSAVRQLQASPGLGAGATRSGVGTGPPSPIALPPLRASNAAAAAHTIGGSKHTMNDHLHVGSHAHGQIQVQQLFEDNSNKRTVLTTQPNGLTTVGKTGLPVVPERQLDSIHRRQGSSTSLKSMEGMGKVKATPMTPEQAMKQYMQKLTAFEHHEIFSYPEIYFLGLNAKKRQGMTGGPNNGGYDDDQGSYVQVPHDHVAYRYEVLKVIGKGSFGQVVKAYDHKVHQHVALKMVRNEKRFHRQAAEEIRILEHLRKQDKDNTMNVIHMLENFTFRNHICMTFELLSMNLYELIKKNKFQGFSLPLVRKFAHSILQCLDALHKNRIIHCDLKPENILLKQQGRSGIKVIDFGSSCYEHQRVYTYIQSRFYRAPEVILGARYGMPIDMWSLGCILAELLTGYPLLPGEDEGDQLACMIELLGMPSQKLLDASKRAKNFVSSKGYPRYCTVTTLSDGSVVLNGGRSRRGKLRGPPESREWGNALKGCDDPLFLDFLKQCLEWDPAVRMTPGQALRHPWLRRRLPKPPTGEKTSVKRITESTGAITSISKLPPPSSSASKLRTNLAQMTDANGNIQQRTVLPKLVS

[6] = molecular target: T4, Glycogen synthase kinase-3 beta (Homo sapiens, UniProt P49841)
[7] = molecular target: T4, Glycogen synthase kinase-3 beta; assay: biochemical

Structure (SMILES): CCOC(=O)c1c(/C(C#N)=C\N)c2ccc(Cl)c(Cl)c2n1C
IC50 [1]: 966 nM

IC50 [2]: 86.4 nM
IC50 [3]: 2100 nM
IC50 [4]: 3.6 nM
IC50 [5]: 40.7 nM
Structure (SMILES): CN1CCN(c2cc(C(=O)Nc3cc4cc(-c5cnn(C)c5)ccc4cn3)ccn2)CC1

IC50 [3]: 112 nM
Structure (SMILES): COc1ccc2nc3c(CO)cc(OC)cc3c(SC[C@H]3CCNC3)c2c1

Structure (SMILES): CC(C)CN1CCC(C(=O)Nc2cc3cc(-c4cnn(C)c4)ccc3cn2)CC1
Kd [6]: 6.21 nM
IC50 [7]: 45.6 nM

Structure (SMILES): CCN1CCN(Cc2ccc(Nc3ncc(F)c(-c4cc(F)c5nc(C)n(C(C)C)c5c4)n3)nc2)CC1 [ABEMACICLIB]
IC50 [5]: 25.4 nM
